For 1 molecule, Ki results are on record in US20100190817A1, “LARGE SUBSTITUENT, NON-PHENOLIC AMINE OPIOIDS” (RENSSELAER POLYTECHNIC INSTITUTE, priority 2008, published 2010).

Sequences of proteins named here, by UniProt entry; tags and fusion partners are left off.
UniProt P35372, whole entry: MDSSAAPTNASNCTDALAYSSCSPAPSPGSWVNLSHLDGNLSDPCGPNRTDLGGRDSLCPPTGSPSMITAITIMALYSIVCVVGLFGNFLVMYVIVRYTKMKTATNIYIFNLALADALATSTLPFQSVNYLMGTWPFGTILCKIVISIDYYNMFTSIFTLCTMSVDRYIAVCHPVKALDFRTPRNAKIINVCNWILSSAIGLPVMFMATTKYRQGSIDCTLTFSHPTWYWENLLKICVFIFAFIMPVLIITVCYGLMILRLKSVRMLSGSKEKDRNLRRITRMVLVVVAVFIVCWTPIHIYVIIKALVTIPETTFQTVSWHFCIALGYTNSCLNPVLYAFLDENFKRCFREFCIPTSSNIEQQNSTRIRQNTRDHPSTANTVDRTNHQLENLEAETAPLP
UniProt P41145, whole entry: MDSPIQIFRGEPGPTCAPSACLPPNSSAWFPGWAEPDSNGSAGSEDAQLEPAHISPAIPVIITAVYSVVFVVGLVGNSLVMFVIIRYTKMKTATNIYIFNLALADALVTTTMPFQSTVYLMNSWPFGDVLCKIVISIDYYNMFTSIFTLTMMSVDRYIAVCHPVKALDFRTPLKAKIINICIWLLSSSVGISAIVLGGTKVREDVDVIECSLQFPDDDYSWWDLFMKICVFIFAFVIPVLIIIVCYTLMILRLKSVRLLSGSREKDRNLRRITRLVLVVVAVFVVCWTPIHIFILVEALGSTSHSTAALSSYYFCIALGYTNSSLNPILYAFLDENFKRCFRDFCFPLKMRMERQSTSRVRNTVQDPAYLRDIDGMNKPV

The target in one assay is human μ opioid receptor (Homo sapiens, UniProt P35372). Description: Opioid receptor binding assay, [3H]DAMGO (μ). The conditions noted are these: read-out: Ki [3H]DAMGO (μ), CHO cell membranes, 0.25 nM [3H]DAMGO, ± S.E.
Another assay deals with human κ opioid receptor (Homo sapiens, UniProt P41145). In words: Opioid receptor binding assay, [3H]U69,593 (κ). The conditions noted are these: read-out: Ki [3H]U69,593 (κ), CHO cell membranes, 1 nM [3H]U69,593, ± S.E.
In the next assay the target is human δ opioid receptor (Homo sapiens, UniProt P41143). In words: Opioid receptor binding assay, [3H]naltrindole (δ). Conditions: read-out: Ki [3H]Naltrindole (δ), CHO cell membranes, 0.2 nM [3H]naltrindole, ± S.E.

`CC1C2Cc3ccc(C(=O)NCCc4ccc(-c5ccc(N(C)C)cc5)cc4)cc3C1(C)CCN2CC1CC1` (stereo not drawn): the inhibition constant Ki – broadly, the dissociation constant of the complex between target and ligand, obtained from inhibition or displacement – on human μ opioid receptor was found to be 0.087 nM; at human κ opioid receptor it was 0.76 nM; at human δ opioid receptor it was 1.4 nM.
